Measured values reported in PMC10334471, “Tumor-targeted dual-action NSAID-platinum(IV) anticancer prodrugs” (Inorganic Chemistry Frontiers, 2023).

Tested on: CT26 allografts
Settings: 9 mg kg^−1 i.v., female Balb/c mice; experiment stopped on day 19, drop in body weight
Procedure: All experiments were executed according to the regulation of the Ethics Committee for the Care and Use of Laboratory Animals at the Medical University Vienna. 8–12 weeks old BALB/c were kept in a pathogen-free environment with a 12 h light dark-cycle with ad libitum access to food and water. Every procedure was performed in a laminar airflow under sterile condition. Tumor growth and possible side effects of drug treatment were evaluated by daily recording the tumor size by caliper measurement according to the formula length × width^2/2 and parameters of the animal's overall health conditions.
CT26 cells (5 × 10^5 cells in 50 μl serum-free medium) were injected s.c. into the right flank of female BALB/c mice. […] Asa was treated orally using 50 mg kg^−1 in 5% DMSO/0.9% NaCl. Every day, the animals were monitored for the overall health conditions. Additionally, tumor size was measured. In case of a decreased body weight of ∼20% or ulcerated tumors, animals were sacrificed by cervical dislocation and tumors as well as organs were collected.

SMILES: O=C1[O][Pt]2([NH][C@@H]3CCCC[C@H]3[NH]2)[O]C1=O [Oxaliplatin, oxaliplatin]
- Toxicity: toxic side effects
